# The list shows a part of the results, in another mix than the full data. Activity calls are given as the source filed them.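 The calls were made as follows: active = activation above its plate's cutoff, the mean activation of test wells on that plate plus 3 SD (cut at about 19% in these data); inactive = the rest.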
# System: transient receptor potential cation channel N1 (TRPN1/NompC), Danio rerio
# Experiment: TRPN1 activation via calcium influx – cell-based, HEK293, calcium fluorescence, zebrafish, primary screen (AID 1424);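 also: 0% = DMSO alone and 100% = 87 µM carbachol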
# Settings: HEK293 zebrafish TRPN1-YFP, Fluo-8 calcium fluorescence; at 3 µM; hits give high values; 100% = response to 87 µM carbachol
# Outline: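 Material: zebrafish TRPN1-YFP in HEK293 cells. Doses: one dose of 3 µM, 0.3% DMSO. Incubation: dye 1 h 37 °C plus 30 min RT. Measured by: intracellular calcium fluorescence with Fluo-8.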
row,SMILES,activation
1,COc1ccc(OP(C)(=O)Nc2cccc(F)c2)cc1 (stereo not drawn),inactive: -0.08%
2,COc1ccccc1OP(C)(=O)Nc1cc(Cl)ccc1C (stereo not drawn),inactive: -0.4%
3,Cc1cc(C)cc(OP(C)(N)=O)c1 (stereo not drawn),inactive: -0.6%
4,CCOC(=O)c1ccc(NP(C)(=O)Oc2ccccc2)cc1 (stereo not drawn),inactive: 0.43%
5,Cc1ccc(NP(C)(=O)Oc2ccccc2)c(C)c1 (stereo not drawn),inactive: 0.09%
6,COc1ccccc1OP(C)(=O)Nc1ccc(C)cc1 (stereo not drawn),inactive: 0.75%
7,Cc1cccc(C)c1OP(C)(N)=O (stereo not drawn),inactive: 0.94%
8,CC(C)(C)c1ccc(OP(C)(=O)Nc2ccc(SC(F)(F)F)cc2)cc1 (stereo not drawn),inactive: -0.25%
9,O=[N+]([O-])c1ccc2c(c1)C=Nc1ccccc1O2,inactive: -1.04%
10,CCN(CC)CCCOC(=O)C(O)(c1ccccc1)c1ccccc1,inactive: 0.59%
11,CP(=O)(Nc1ccccn1)Oc1ccc(Cl)cc1 (stereo not drawn),inactive: -0.05%
12,CCOP(C)(=S)SCC(=O)NC(C)C(=O)O (stereo not drawn),inactive: 1.21%
13,CCOC(=O)c1ccc(NP(C)(=O)Oc2ccc(OC)cc2)cc1 (stereo not drawn),inactive: 0.33%
14,Cc1cc(C)cc(OP(C)(=O)Nc2ccc(SC(F)(F)F)cc2)c1 (stereo not drawn),inactive: 0.15%
15,CCc1ccc(OP(C)(=O)N2CCN(c3ccc([N+](=O)[O-])cc3)CC2)cc1 (stereo not drawn),inactive: 4.26%
16,CP(=O)(NC(=O)Nc1ccccc1)Oc1ccccc1 (stereo not drawn),inactive: 1.34%
17,CP(=O)(Oc1ccccc1)OC(c1ccccc1)C(F)(F)F (stereo not drawn),inactive: -1.03%
18,CP(=O)(Nc1ccc(SC(F)(F)F)cc1)Oc1ccc(Cl)cc1 (stereo not drawn),inactive: 0.96%
19,Cc1cccc(C)c1OP(C)(=O)Nc1ccc(SC(F)(F)F)cc1 (stereo not drawn),inactive: 0.21%
20,COc1ccccc1OP(C)(=O)Nc1ccccc1 (stereo not drawn),inactive: -1.85%
21,CP(=O)(Nc1ccccc1Br)Oc1ccccc1 (stereo not drawn),inactive: -0.2%

row,SMILES,activation
1,CP(=S)(Nn1cnnc1)Oc1ccccc1 (stereo not drawn),inactive: 0.38%
2,CP(=O)(Nc1ccc(SC(F)(F)F)cc1)Oc1ccccc1 (stereo not drawn),inactive: 2.24%
3,CCCOc1ccc(NP(C)(=O)Oc2ccc(Cl)cc2)cc1 (stereo not drawn),inactive: -3.11%
4,CN1CCCCC1COC(=O)C1(O)c2ccccc2CCc2ccccc21 (stereo not drawn),inactive: 0.26%
5,COc1ccccc1OP(C)(=O)Nc1c(C)cccc1C (stereo not drawn),inactive: 1.27%
6,CCOC(=O)C(CC)C1=NC(C)(C)Cc2ccccc21.O=[N+]([O-])c1cc([N+](=O)[O-])c(O)c([N+](=O)[O-])c1 (stereo not drawn),inactive: -1.57%
7,O=[N+]([O-])c1cc([N+](=O)[O-])c(Nc2nnnn2CCO)c([N+](=O)[O-])c1,inactive: -0.1%
8,Cc1nc2ccc3ccccc3c2s1.O=[N+]([O-])c1cc([N+](=O)[O-])c(O)c([N+](=O)[O-])c1,inactive: -0.65%
9,O=[N+]([O-])c1cc([N+](=O)[O-])c(-n2nnc3ccccc32)c([N+](=O)[O-])c1,inactive: 1.04%
10,CP(=O)(Nc1cccc(Br)c1)Oc1ccccc1 (stereo not drawn),inactive: -0.5%
11,Cc1cc(C)cc(OP(C)(=O)Nc2ccccn2)c1 (stereo not drawn),inactive: -1.25%
12,Cc1ccc(C)c(NP(C)(=O)Oc2ccccc2)c1 (stereo not drawn),inactive: -0.16%
13,Cc1cc(C)cc(OP(C)(=O)Nc2ccc(C)cc2C)c1 (stereo not drawn),inactive: -0.96%
14,CCOC(=O)c1ccc(NP(C)(=O)Oc2cc(C)cc(C)c2)cc1 (stereo not drawn),inactive: -0.12%
15,COc1ccccc1OP(C)(=O)Nc1cccc(Br)c1 (stereo not drawn),inactive: 0.27%
16,CC1=NCCc2c1[nH]c1ccccc21.O=[N+]([O-])c1cc([N+](=O)[O-])c(O)c([N+](=O)[O-])c1,inactive: -0.14%
17,O=C(O)c1cccc(Nc2c([N+](=O)[O-])cc([N+](=O)[O-])cc2[N+](=O)[O-])c1,inactive: -0.51%
18,CCCCCOc1ccc(NP(C)(=O)Oc2ccc(Cl)cc2Cl)cc1 (stereo not drawn),inactive: -0.56%
19,CP(=O)(Nc1ccccc1)Oc1ccc(F)cc1 (stereo not drawn),inactive: -0.99%
20,CCN(CC)CCCOC(=O)C(O)(c1ccccc1)C1CCCCC1 (stereo not drawn),inactive: 1.25%
21,COc1ccc(OP(C)(=O)Nc2ccc(SC(F)(F)F)cc2)cc1 (stereo not drawn),inactive: 1.01%

row,SMILES,activation
1,CCOC(=O)c1ccc(NP(C)(=O)Oc2ccc(F)cc2)cc1 (stereo not drawn),inactive: -0.71%
2,O=C(OCCN1CCN(CCOCc2ccccc2)CC1)C(O)(c1ccccc1)c1ccccc1,inactive: 0.59%
3,O=C(OC1CN2CCC1CC2)c1ccc([N+](=O)[O-])cc1 (stereo not drawn),inactive: 1.94%
4,CC(C)c1ccc(OP(C)(=O)Nc2ccc(SC(F)(F)F)cc2)cc1 (stereo not drawn),inactive: 0.64%
5,CP(=O)(Nc1ccccc1F)Oc1ccccc1 (stereo not drawn),inactive: 1.43%
6,Cc1ccccc1NP(C)(=O)Nc1ccccc1C,inactive: -0.75%
7,CP(=O)(Nc1ccc2c(c1)OCCO2)Oc1ccccc1 (stereo not drawn),inactive: 0.54%
8,CCOP(C)(=S)SCC(=O)NC(C)(CC)C(=O)O (stereo not drawn),inactive: 0.09%
9,CP(=O)(Nc1ccc(SC(F)(F)F)cc1)Oc1ccc(F)cc1 (stereo not drawn),inactive: 0.64%
10,Cc1cc(-c2cccc3ccccc23)c(C)cn1.O=[N+]([O-])c1cc([N+](=O)[O-])c(O)c([N+](=O)[O-])c1,inactive: -5.59%
11,O=[N+]([O-])c1cc([N+](=O)[O-])c(NCC2CCS(=O)(=O)C2)c([N+](=O)[O-])c1 (stereo not drawn),inactive: 1.51%
12,O=[N+]([O-])c1ccc(OP2(=O)COCCO2)cc1 (stereo not drawn),inactive: 1.01%
13,COc1ccc(NP(C)(=O)Oc2ccccc2OC)cc1 (stereo not drawn),inactive: -0.39%
14,CN(C)CCOC(=O)C(O)(c1ccccc1)C1CCCCC1 (stereo not drawn),inactive: 0.03%
15,COc1ccc(OP(C)(=O)Nc2cccc(Br)c2)cc1 (stereo not drawn),inactive: -3.02%
16,CP(=O)(OC12CC3CC(CC(C3)C1)C2)OC12CC3CC(CC(C3)C1)C2,inactive: -0.99%
17,CCOC(=O)c1ccc(NP(C)(=O)Oc2ccc(Cl)cc2)cc1 (stereo not drawn),inactive: -0.12%
18,CN(C)C(=O)c1c([N+](=O)[O-])cc([N+](=O)[O-])cc1[N+](=O)[O-],inactive: 0.58%
19,CP(=O)(Nc1ccc(Cl)cc1)Oc1ccc(F)cc1 (stereo not drawn),inactive: -0.32%
20,CC(C)(C)c1ccc(OP(C)(=O)O)cc1,inactive: 1.52%
21,COc1ccccc1OP(C)(=O)Nc1ccccc1Br (stereo not drawn),inactive: -2.16%

row,SMILES,activation
1,CCc1ccc(OP(C)(=O)Nc2cccnc2)cc1 (stereo not drawn),inactive: -1.47%
2,CP(=O)(Oc1ccccc1)N1CCOC1=O (stereo not drawn),inactive: 0.63%
3,O=C(OCCCN1CCCC1)C(O)(c1ccccc1)C1CCCCC1 (stereo not drawn),inactive: 1.41%
4,COc1ccccc1OP(C)(=O)Nc1c(C)n(C)n(-c2ccccc2)c1=O (stereo not drawn),inactive: 0.04%
5,COc1ccc(OP(C)(=O)Nc2ccc(Br)cc2)cc1 (stereo not drawn),inactive: 0.35%
6,CCN(CC)CC(O)COC(=O)C(O)(c1ccccc1)C1CCCCC1 (stereo not drawn),inactive: -0.12%
7,CCc1ccc(OP(C)(=O)O)cc1,inactive: 1.4%
8,COc1ccccc1OP(C)(=O)Nc1ccc(C)cc1C (stereo not drawn),inactive: 0.07%
9,CP(=O)(Nc1ccccn1)Oc1ccccc1 (stereo not drawn),inactive: 0.43%
10,O=[N+]([O-])c1cc([N+](=O)[O-])c(Nc2ccccn2)c([N+](=O)[O-])c1,inactive: 3.1%
11,Cc1c(NP(C)(=O)Oc2ccc(C(C)C)cc2)c(=O)n(-c2ccccc2)n1C (stereo not drawn),inactive: 0.18%
12,CN(C)CCOC(=O)C(O)(c1ccccc1)C1CCCC1 (stereo not drawn),inactive: 0.33%
13,COc1ccc(OP(C)(=O)Nc2ccccn2)cc1 (stereo not drawn),inactive: -0.59%
14,COc1ccccc1OP(C)(=O)Nc1ccc(Br)cc1 (stereo not drawn),inactive: 1.28%
15,CP(=O)(OCCOc1ccccc1)OCCOc1ccccc1,inactive: -0.48%
16,CP(=O)(Nc1ccc(Cl)cc1Cl)Oc1ccccc1 (stereo not drawn),inactive: -1.56%
17,Cc1nc2ccc3ccccc3c2o1.O=[N+]([O-])c1cc([N+](=O)[O-])c(O)c([N+](=O)[O-])c1,inactive: -0.66%
18,COc1ccc(OP(C)(=O)Nc2ccccc2Br)cc1 (stereo not drawn),inactive: -0.07%
19,COc1ccccc1OP(C)(=O)Nc1ccc(C)c(C)c1 (stereo not drawn),inactive: 0.26%
20,Cc1cc(C)cc(OP(C)(=O)Nc2cccc(C(F)(F)F)c2)c1 (stereo not drawn),inactive: -1.87%

# Source: PubChem BioAssay AID1424 (The Scripps Research Institute Molecular Screening Center, 2008)
